Species on record: Mus musculus
Experiment: Protective index (TD50/ED50) produced by compound in mouse after MES test

NC(=O)N1c2ccccc2C=Cc2ccccc21 [CARBAMAZEPINE]
PI: 8.1

Source: ChEMBL document CHEMBL1143470, “Synthesis and anticonvulsant activity of 7-alkoxyl-4,5-dihydro-[1,2,4]triazolo[4,3-a]quinolines” (Bioorg Med Chem Lett, 2005)
